The term inhibition denotes the drop in the measured response relative to a control, in per cent.

Chains of the proteins cited; added tags and fusions are not shown.
UniProt Q96T88, whole entry: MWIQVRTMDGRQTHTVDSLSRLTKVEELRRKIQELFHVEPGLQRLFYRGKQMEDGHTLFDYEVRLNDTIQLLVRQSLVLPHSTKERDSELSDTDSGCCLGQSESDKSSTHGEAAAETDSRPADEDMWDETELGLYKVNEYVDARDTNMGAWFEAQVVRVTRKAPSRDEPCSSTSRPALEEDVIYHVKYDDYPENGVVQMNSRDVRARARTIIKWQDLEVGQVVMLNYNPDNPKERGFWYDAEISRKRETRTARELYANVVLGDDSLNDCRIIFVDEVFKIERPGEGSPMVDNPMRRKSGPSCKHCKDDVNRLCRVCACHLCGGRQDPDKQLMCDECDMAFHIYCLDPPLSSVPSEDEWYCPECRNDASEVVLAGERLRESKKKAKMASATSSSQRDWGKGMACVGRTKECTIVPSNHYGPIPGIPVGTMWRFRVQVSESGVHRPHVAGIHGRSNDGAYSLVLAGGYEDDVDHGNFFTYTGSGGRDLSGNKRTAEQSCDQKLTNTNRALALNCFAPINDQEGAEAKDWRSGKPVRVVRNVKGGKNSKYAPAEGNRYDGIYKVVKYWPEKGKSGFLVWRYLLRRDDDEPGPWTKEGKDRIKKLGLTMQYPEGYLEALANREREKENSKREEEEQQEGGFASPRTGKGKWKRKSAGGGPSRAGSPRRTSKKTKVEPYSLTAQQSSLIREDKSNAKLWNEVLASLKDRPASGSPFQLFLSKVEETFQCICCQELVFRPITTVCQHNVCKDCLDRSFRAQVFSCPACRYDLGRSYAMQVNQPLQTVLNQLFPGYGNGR

Each structure is given as a SMILES string. The list shows a part of the results, in another mix than the full data. The source made the active and inactive calls. Rule as the data show it: active = inhibition above about 21%; inactive = the rest.

The text below walks through data of PubChem BioAssay AID687016 (The Scripps Research Institute Molecular Screening Center, 2013).

The target of this experiment is E3 ubiquitin-protein ligase UHRF1 (Homo sapiens) (UniProt Q96T88). In words: UHRF1 methylated DNA binding inhibitors, primary screen, counter-screen for MBD2 inhibitor project, biochemical, TR-FRET, human UHRF1, single concentration (AID 687016).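 Also: UHRF1 SRA domain binding a hemimethylated CpG hairpin DNA probe; 0% = median of test compound wells and 100% = reference inhibitor.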 The settings on record: UHRF1 binding to methylated oligo, at 4.4 µM, active compounds read high. (In general: A counterscreen serves to expose hits that act by an unwanted route or on another target.)
Regarding `O=[N+]([O-])c1cccc2n[nH]nc12`, the inhibition is inactive: 2.83%.
